From ChEMBL document CHEMBL1641396, “4-Oxo-1,4-dihydropyridines as selective CB2 cannabinoid receptor ligands: structural insights into the design of a novel inverse agonist series” (J Med Chem, 2010)

Sequences of proteins named here, by UniProt entry; tags and fusion partners are left off.
UniProt P34972, whole entry: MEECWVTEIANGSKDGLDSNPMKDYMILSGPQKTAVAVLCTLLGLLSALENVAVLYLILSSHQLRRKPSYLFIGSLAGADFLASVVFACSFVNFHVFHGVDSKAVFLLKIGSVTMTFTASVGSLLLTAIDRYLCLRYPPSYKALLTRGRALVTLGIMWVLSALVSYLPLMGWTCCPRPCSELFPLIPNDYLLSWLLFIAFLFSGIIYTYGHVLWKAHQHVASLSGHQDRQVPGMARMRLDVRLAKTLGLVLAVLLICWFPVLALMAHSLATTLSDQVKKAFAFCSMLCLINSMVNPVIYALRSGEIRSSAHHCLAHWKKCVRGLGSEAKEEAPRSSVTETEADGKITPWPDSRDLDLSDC

Each compound was assayed against Cannabinoid receptor 2 (Homo sapiens, UniProt P34972) (assay: Agonist activity at human CB2 receptor expressed in CHO cells assessed as stimulation of [35S]-GTPgammaS binding relative to basal activity).
Format: functional, cell-based
`CCCCCn1cc(C(=O)NC2CCCCC2)c(=O)cc1C(C)(C)C` gave an Emax of 135%. Compound `CCCCCn1cc(C(=O)NC23CC4CC(CC(C4)C2)C3)c(=O)cc1-c1ccccc1` has an Emax of 39%. `CCCCCn1cc(C(=O)NC23CC4CC(CC(C4)C2)C3)c(=O)cc1-c1ccc(Cl)cc1` was tested, and the Emax was 42%. In the case of `CCCCCn1cc(C(=O)NCC23CC4CC(CC(C4)C2)C3)c(=O)cc1-c1ccccc1`, the Emax is reported as 37%. `CCCCCCn1cc(C(=O)NC23CC4CC(CC(C4)C2)C3)c(=O)cc1-c1ccccc1` showed an Emax of 33%.
